Like-named read-outs stand apart in the source and are kept apart here.
What was measured:
[1] = cited from earlier work
[2] = Resistance to oxidation and degradation at elevated temperature; settings: 100 to 150 degrees Celsius; versus propylene glycol or ethylene glycol

## 1,3-propanediol
[1]; DuPont MSDS
  Solubility in water: Solubility in Water: Miscible with water
[1]; Shell datasheet
  Solubility in water: Complete
[2]
  Resistance to oxidation and degradation over time: resists oxidation and degradation at these temperatures over time significantly better than either propylene glycol or ethylene glycol

— patent US20050013753A1, “Heat-transfer systems” (priority 2003, published 2005)
